# Results taken from PubChem BioAssay.
# The chains behind the UniProt entries cited, without tags or fusion partners. Where a name states a change or a piece, a line headed by the entry shows the natural chain unless it says otherwise.
# UniProt P98170, whole entry, looked up: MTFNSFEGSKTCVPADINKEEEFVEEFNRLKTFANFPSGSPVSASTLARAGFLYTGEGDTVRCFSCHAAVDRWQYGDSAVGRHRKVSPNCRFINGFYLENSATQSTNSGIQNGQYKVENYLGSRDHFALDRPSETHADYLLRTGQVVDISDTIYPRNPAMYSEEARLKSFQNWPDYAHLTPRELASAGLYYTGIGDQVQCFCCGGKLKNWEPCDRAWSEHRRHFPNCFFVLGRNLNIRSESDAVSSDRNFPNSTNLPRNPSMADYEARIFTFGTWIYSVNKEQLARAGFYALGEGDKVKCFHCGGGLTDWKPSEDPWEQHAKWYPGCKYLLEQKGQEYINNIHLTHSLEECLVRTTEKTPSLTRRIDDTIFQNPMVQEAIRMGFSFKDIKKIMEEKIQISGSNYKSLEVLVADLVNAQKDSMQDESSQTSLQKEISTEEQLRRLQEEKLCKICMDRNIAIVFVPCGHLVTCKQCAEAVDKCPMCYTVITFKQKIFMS
# UniProt Q62424: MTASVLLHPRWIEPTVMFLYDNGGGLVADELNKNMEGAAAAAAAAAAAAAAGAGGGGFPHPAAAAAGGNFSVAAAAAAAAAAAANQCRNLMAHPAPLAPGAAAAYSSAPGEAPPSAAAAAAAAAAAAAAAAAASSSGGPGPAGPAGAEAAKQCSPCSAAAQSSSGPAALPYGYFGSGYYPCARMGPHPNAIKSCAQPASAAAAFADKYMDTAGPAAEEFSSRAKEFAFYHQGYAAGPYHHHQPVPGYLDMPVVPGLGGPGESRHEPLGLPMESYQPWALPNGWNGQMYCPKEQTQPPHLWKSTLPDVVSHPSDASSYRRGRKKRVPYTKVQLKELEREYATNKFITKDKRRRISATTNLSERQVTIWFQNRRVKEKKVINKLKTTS
# The entries are a selection whose mix differs from that of the whole data set. This is one part of the list. Activity calls are given as the source filed them.
# How the values were obtained:
# [1] = compound effects on multiple myeloma cell viability – MM1S, calcein-AM fluorescence, 48 h, basal, profiling panel (AID 1165); settings: higher = more signal;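 note: viability of MM1S multiple myeloma cells under basal unstimulated conditions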
# [2] = calcein-AM signal in unstimulated myeloma cells – cell-based, calcein-AM fluorescence, 48 h, PK04 Diversity Set, profiling panel (AID 1166); settings: RPMI8226 myeloma viability, higher = more signal;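 note: cells grown under basal conditions without added stimulus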
# [3] = JC-1 mitochondrial signal, unstimulated HepG2 cells – cell-based, JC-1 fluorescence, 24 h, 100 nL compound, profiling panel (AID 1167); settings: HepG2 mitochondrial potential, higher = more signal
# [4] = JC-1 mitochondrial signal, unstimulated adipocytes – cell-based, JC-1 fluorescence, 3T3-L1 adipocytes, 24 h, 100 nL compound, profiling panel (AID 1168); settings: JC-1 mitochondrial fluorescence, higher = more signal, called active from +8 up or from −8 down
# [5] = JC-1 mitochondrial signal, unstimulated myeloma cells – cell-based, JC-1 fluorescence, RPMI8226, 24 h, 100 nL compound, profiling panel (AID 1169); settings: JC-1 mitochondrial potential fluorescence, higher = more signal
# [6] = JC-1 mitochondrial signal, unstimulated MM1S myeloma – cell-based, JC-1 fluorescence, 24 h, 100 nL compound, profiling panel (AID 1170); settings: MM1S mitochondrial potential, higher = more signal
# [7] = resazurin metabolic signal in A549 cells – cell-based, resazurin fluorescence, 24 h, PK04 Diversity Set, profiling panel (AID 1171); settings: A549 viability, higher = more signal, called active from +8 up or from −8 down
# [8] = resazurin metabolic signal in HepG2 cells – cell-based, resazurin fluorescence, 24 h, PK04 Diversity Set, profiling panel (AID 1172); settings: HepG2 viability, higher = more signal
# [9] = budding yeast growth changes without added modifier – OD600, strain BY4716, 24 h, basal condition, primary screen (AID 1173); settings: S. cerevisiae BY4716 growth, OD600, 24 h; higher = more signal, called active from +8 up or from −8 down
# [10] = viability profiling in MM1S myeloma cells – cell-based, resazurin fluorescence, basal, 24 h, PK04 Diversity Set, profiling panel (AID 1174); settings: higher = more signal, called active from +8 up or from −8 down
# [11] = growth modulation of vineyard yeast isolate – strain RM11-1a, OD600, basal, 24 h, primary screen (AID 1177);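 note: cultures grown under basal conditions with no added stressor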; settings: S. cerevisiae RM11-1a growth, OD600, 24 h; higher = more signal, called active from +8 up or from −8 down
# [12] = viability profiling in RPMI8226 myeloma cells – cell-based, resazurin fluorescence, basal, 24 h, PK04 Diversity Set, profiling panel (AID 1180); settings: higher = more signal;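 note: RPMI8826 multiple myeloma cell line at 5000 cells per well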
# [13] = biological target: E3 ubiquitin-protein ligase XIAP (Homo sapiens) (UniProt P98170); assay: small molecules binding XIAP protein – biophysical, small-molecule microarray, fluorescence 635 nm, primary screen (AID 1181); settings: higher = more signal;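 note: score merges 667 nm emission and signal to noise over triplicate slides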
# [14] = tested on: XIP peptide (Xip251-270) binding; assay: XIP fragment 251-270 binding compounds – biochemical, small-molecule microarray, fluorescence 635/667 nm, 0.1 µg/mL protein, primary screen (AID 1182); settings: fluorescent protein binding, 635 nm, higher = more signal, called active from +8 up or from −8 down
# XIP peptide (Xip251-270) = assay: compounds binding XIP fragment 251-270 – biochemical, small-molecule microarray, fluorescence 635/667 nm, 0.5 µg/mL protein, primary screen (AID 1183); settings: fluorescence 635 nm, higher = more signal
# [15] = biological target: Homeobox protein Hox-A13 (Mus musculus) (UniProt Q62424); assay: disruptors of Hoxa13 oligonucleotide interaction – biochemical, fluorescence polarization, labeled oligonucleotide, primary screen (AID 1185); settings: Hoxa13:DNA binding, 15 min, higher = more signal, called active from +8 up or from −8 down
SMILES,z-score [1],z-score [2],z-score [3],z-score [4],z-score [5],z-score [6],z-score [7],z-score [8],z-score [9],z-score [10],z-score [11],z-score [12],composite z-score [13],composite z-score [14],composite z-score (XIP peptide (Xip251-270)),z-score [15]
O=P(/N=C1/CC(CCCO)=CC(C2CC2)N1Cc1cc2c(cc1Br)OCO2)(Oc1ccccc1)Oc1ccccc1 (stereo not given),-1.85,-0.928,0.661,inactive: -0.555,0.47,0.634,inactive: 0.262,0.0544,inactive: -2.24,inactive: -0.362,inactive: -0.11,0.0857,-0.327,inactive: 0.722,0.577,inactive: -6.42
COP(=O)(/N=C1/CC(c2ccc(CO)cc2)=CC(C2CC2)N1Cc1sc2ccccc2c1Cl)OC (stereo not given),-3.22,-3.72,3.07,inactive: 2.81,-0.659,-1.16,inactive: -1.03,1.5,active: -8.03,inactive: -2.06,inactive: -4.46,-2.15,0.0847,inactive: 1.98,-0.0195,inactive: -1.18
COP(=O)(/N=C1/CC(CCCO)=CC(C2CC2)N1Cc1sc2ccccc2c1Cl)OC (stereo not given),-2.74,-2.35,1.26,inactive: 1.08,-0.449,-0.603,inactive: 0.026,0.0405,active: -11.1,inactive: -0.0498,inactive: 0.219,-0.0924,0.287,inactive: 0.615,0.297,inactive: -4.46
COP(=O)(/N=C1/CC(CCCO)=CC(C2CC2)N1Cc1cccc(OC(F)(F)F)c1)OC (stereo not given),-0.489,-0.423,2.1,inactive: 1.04,-0.248,-1.3,inactive: -0.144,-0.494,inactive: -4.23,inactive: 0.36,inactive: -1.79,0.601,0.358,inactive: 0.494,0.161,inactive: -5.34
COP(=O)(/N=C1/CC(c2ccc(CO)cc2)=CC(C2CC2)N1C)OC (stereo not given),-0.331,2.13,0.845,inactive: -0.794,-0.595,-1.25,inactive: 0.393,0.346,inactive: -2.75,inactive: 0.486,inactive: -2.11,0.746,0.167,inactive: -0.0137,0.687,inactive: -2.51
CN1/C(=N\P(=O)(Oc2ccccc2)Oc2ccccc2)CC(c2ccc(CO)cc2)=CC1c1cccs1 (stereo not given),0.844,1.01,-1.17,inactive: 0.727,-0.15,1.32,inactive: 0.569,0.209,inactive: -0.942,inactive: 0.999,inactive: 0.91,1.35,0.0003,inactive: 1.01,0.158,inactive: -2.59
O=P(/N=C1/CC(CCCO)=CC(c2cccs2)N1Cc1cccc(OC(F)(F)F)c1)(Oc1ccccc1)Oc1ccccc1 (stereo not given),-2.8,-1.23,-0.362,inactive: 0.458,-0.912,1.49,inactive: -0.68,-0.624,inactive: -3.69,inactive: 0.355,inactive: 0.433,-0.0317,0.293,inactive: 1.57,0.576,inactive: -4.29
COP(=O)(/N=C1/CC(CCCO)=CC(c2ccc(CN3CCCC3)cc2)N1Cc1sc2ccccc2c1Cl)OC (stereo not given),-2.41,0.929,2.71,inactive: 1.2,-0.539,0.017,inactive: 0.702,0.0636,inactive: -2.8,inactive: 0.31,inactive: 0.145,0.19,0.0108,inactive: 0.356,0.928,inactive: -2.19
COP(=O)(/N=C1/CC(CCCO)=CC(c2ccc(CN3CCCC3)cc2)N1Cc1cc2c(cc1Br)OCO2)OC (stereo not given),0.103,0.945,1.8,inactive: 1.73,-0.483,0.861,inactive: -0.216,0.531,inactive: -2.74,inactive: 0.871,inactive: -2.8,0.478,0.0847,inactive: -0.0668,0.78,inactive: -1.63
CN1/C(=N\P(=O)(Oc2ccccc2)Oc2ccccc2)CC(c2ccc(CO)cc2)=CC1C1CC1 (stereo not given),0.88,1.22,1.93,inactive: 0.644,-0.127,1.65,inactive: 0.959,0.65,inactive: -1.19,inactive: 1.09,inactive: -0.906,0.743,0.0156,inactive: 0.172,0.0274,inactive: -4.45
COP(=O)(/N=C1/CC(CCCO)=CC(C2CC2)N1C)OC (stereo not given),0.927,0.596,1.41,inactive: 0.625,-0.628,-0.154,inactive: -0.821,-0.474,inactive: -0.769,inactive: 0.235,inactive: -2.11,0.098,0.411,inactive: -0.21,0.0312,inactive: -2.81
COP(=O)(/N=C1/CC(CCCO)=CC(c2cccs2)N1C)OC (stereo not given),0.445,0.654,1.64,inactive: 1.96,0.754,0.0384,inactive: 0.589,0.878,inactive: -3.1,inactive: 0.875,inactive: -0.871,1.4,0.451,inactive: 0.995,-0.0426,inactive: -5.98
O=P(/N=C1/CC(CCCO)=CC(c2ccc(CN3CCCC3)cc2)N1Cc1sc2ccccc2c1Cl)(Oc1ccccc1)Oc1ccccc1 (stereo not given),-3.25,-3.96,2.75,inactive: -2.11,-0.79,-2.07,inactive: 1.04,-0.332,inactive: -6.56,inactive: -2.54,inactive: -1.43,-2.06,-0.0114,inactive: 0.121,0.369,inactive: -2.94
O=P(/N=C1/CC(c2ccc(CO)cc2)=CC(C2CC2)N1Cc1sc2ccccc2c1Cl)(Oc1ccccc1)Oc1ccccc1 (stereo not given),-1.95,-3.46,0.792,inactive: -0.518,-0.822,-0.149,inactive: -1.71,-0.0412,inactive: -4.28,inactive: -2.97,inactive: 0.144,-2.55,0.344,inactive: 0.227,0.671,inactive: 0.55
O=P(/N=C1/CC(c2ccc(CO)cc2)=CC(C2CC2)N1Cc1cc2c(cc1Br)OCO2)(Oc1ccccc1)Oc1ccccc1 (stereo not given),-2.24,-4.51,-0.225,inactive: 0.816,-0.975,-2.42,inactive: -0.798,0.503,inactive: -1.33,inactive: -1.41,inactive: 0.425,-1.76,0.0192,inactive: 0.712,0.814,inactive: -1.75
